A value given as a limit tells only on which side of the number the result lay.

One experiment concerns the target T1, Cdc25B (Homo sapiens, UniProt P30305).
T1 sequence (P30305 1-580): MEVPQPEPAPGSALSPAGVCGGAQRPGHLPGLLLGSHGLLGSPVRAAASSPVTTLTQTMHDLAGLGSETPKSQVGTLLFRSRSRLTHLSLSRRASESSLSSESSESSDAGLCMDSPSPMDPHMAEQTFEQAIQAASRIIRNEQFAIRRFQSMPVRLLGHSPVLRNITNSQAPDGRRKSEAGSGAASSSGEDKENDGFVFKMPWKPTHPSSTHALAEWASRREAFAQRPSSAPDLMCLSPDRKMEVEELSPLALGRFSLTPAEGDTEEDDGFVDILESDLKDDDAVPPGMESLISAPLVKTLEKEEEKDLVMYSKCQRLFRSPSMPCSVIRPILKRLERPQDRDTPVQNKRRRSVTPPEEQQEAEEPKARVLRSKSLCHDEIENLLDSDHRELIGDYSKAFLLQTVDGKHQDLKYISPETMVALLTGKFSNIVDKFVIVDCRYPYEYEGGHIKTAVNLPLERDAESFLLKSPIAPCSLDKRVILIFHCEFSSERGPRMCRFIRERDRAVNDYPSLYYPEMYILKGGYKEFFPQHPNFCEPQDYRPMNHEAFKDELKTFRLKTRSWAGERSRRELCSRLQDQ
Kind of experiment: CycLex Cdc25B fluorometric phosphatase inhibition assay. Type of experiment: biochemical.

Experiment [1] deals with nine tumor cell lines and primary PBMCs. Kind of experiment: Cytotoxicity across the panel of nine tumor cell lines and PBMCs. Type of experiment: cell-based. As to conditions: Homo sapiens, PBMC, 24 h, read-out: cytotoxic activity IC50 for most of the cell lines.

Consider `CC(C)=CC[C@@H](O)C1=CC(=O)c2c(O)ccc(O)c2C1=O` [Compound 1, Shikonin, reference compound], for which the IC50 (commonly the concentration needed to halve the response being measured) was below 5 µM on Cdc25B and below 10 µM in experiment [1].

These data come from publication PMC6925601 (European journal of medicinal chemistry, 2019).
